The series can be described thus: single dose pharmacokinetic study LYN-190-BUP, intravenous bolus. To be noted: 0.03 mg/kg iv, analyte buprenorphine.

Consider 1 substance from patent US20240252483A1, “GASTRIC RESIDENCE SYSTEMS COMPRISING BUPRENORPHINE AND NALOXONE” (Lyndra Therapeutics, Inc., priority 2021, published 2024).

Where “and” joins values, the source holds several entries; their conditions need not be identical. Equal values may be shown once.

A word on the Tmax: it is the time at which the peak concentration occurs.

Take Buprenorphine HCL: the “extrapolated initial plasma concentration (CO)” value was 17.3 ng/mL. For the setting “Mean, 4 monkeys”, the AUCinf amounted to 25.4 ng·h/mL, the AUClast was found to be 24.7 ng·h/mL and the “Half-life (terminal phase t½)” value came out at 1.62 h. The substance also had a Tlast (individual animals) of 8 h. Besides, under “individual animals, HCL”, the AUCinf is 21.5 ng·h/mL and 28.7 ng·h/mL and 28.0 ng·h/mL and 23.6 ng·h/mL; the AUClast was 20.9 ng·h/mL and 28.0 ng·h/mL and 27.3 ng·h/mL and 22.5 ng·h/mL; the Half-life was 1.82 h and 1.47 h and 1.64 h and 1.57 h; the Tmax is 0.083 h and 0.250 h. Further, under “listed as Mean, 4 monkeys”, the Tlast stood at 8 h and the Tmax is 0.083 h.
